Here are results for 1 compound from paper PMC3873281, “Discovery and Preclinical Characterization of Novel Small Molecule TRK and ROS1 Tyrosine Kinase Inhibitors for the Treatment of Cancer and Inflammation” (PLoS ONE, 2013).

Protein sequences, listed by entry. Tags and fused reporters are not part of them. Lines headed by an entry give the natural chain unless they say otherwise; changes in a name come on top. Residues count along the entry.
UniProt O95436: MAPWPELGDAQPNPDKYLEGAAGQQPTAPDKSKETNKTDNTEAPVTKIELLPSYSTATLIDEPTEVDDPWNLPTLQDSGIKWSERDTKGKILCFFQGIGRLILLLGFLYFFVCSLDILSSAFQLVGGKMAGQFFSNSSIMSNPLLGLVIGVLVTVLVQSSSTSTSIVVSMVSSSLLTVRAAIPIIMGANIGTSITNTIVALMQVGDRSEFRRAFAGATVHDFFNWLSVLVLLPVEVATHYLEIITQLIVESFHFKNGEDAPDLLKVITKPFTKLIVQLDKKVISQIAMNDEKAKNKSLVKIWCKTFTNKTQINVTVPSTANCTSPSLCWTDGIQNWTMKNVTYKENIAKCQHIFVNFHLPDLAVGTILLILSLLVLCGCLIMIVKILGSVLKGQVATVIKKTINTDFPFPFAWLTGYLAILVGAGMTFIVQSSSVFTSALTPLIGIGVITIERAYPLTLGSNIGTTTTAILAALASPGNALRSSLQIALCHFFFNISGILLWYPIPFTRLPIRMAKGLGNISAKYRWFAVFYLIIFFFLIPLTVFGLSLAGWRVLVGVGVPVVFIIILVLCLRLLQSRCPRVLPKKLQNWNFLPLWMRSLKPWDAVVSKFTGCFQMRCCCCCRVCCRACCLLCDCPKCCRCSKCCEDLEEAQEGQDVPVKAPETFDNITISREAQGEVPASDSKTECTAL
UniProt P08922, 1883-2347 limits assumed: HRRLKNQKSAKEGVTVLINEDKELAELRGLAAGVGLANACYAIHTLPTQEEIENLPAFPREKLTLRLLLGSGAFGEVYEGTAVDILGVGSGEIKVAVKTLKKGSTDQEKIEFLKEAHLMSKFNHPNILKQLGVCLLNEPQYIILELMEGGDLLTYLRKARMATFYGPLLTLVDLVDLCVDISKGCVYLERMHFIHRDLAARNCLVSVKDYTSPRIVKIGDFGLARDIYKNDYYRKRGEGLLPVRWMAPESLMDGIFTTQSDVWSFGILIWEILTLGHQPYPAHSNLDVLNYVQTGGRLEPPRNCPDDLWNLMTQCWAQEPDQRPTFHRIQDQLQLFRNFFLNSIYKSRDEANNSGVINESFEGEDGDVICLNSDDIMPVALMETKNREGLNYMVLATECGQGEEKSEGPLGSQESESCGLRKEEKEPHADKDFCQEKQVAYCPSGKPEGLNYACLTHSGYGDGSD

The assay concerns the target ROS1 (SLC34A2:ROS1 fusion) (Homo sapiens, UniProt O95436+P08922). Kind of assay: ROS1 phosphorylation in HCC78 cells, immunoblot. The following applies: 100 nM. On the technique in general: A western blot detects proteins with antibodies after separation by electrophoresis.

Turning to `C[C@@H](Oc1cc(-c2cnn(C3CCNCC3)c2)cnc1N)c1c(Cl)ccc(F)c1Cl` [crizotinib], the “time of treatment at which ROS1 phosphorylation was inhibited” value is reported as 6 days.
